Test results: US8591908B2, “Immunogen for preparation of therapeutic vaccines or drugs for treatment of hepatitis B and the producing method and use thereof” (Institute of Immunology, PLA, priority 2002, dated 2013)

Tested on: HBV-DNA transgenic mice
Assay: HBV transgenic mice: IFN-γ secreting cells, ELI-SPOT
Type: in vivo
Details: 30th day after end of immunization; IFN-α2b at 15000 U/mouse
Protocol: FIG. 6: HBV-DNA transgenic mice (ayw type Kunming mice transfected with the complete gene of HBV (1.3 Kb) were grouped randomly, and each group had five mice. The mice were administered subcutaneously with one of three doses (namely, 10, 100 and 1000 U/mouse) below both costal regions and at both postpede palmas, and the immunizations were enhanced once a week for three times. INF-α2b (15000 U/mouse) was included as a positive control drug, and physiological saline was included as negative control drug. Thirty days after the end of the administration, spleens were removed from mice, and spleen lymphocytes were isolated and stimulated with 10 ng/ml test drug in vitro for three days. The levels of cytokines such as IFN-γ, IL-4, etc. in supernatant were measured by the ELISA method, and the activity of the test drug (CH3(CH2)14COKSSQYIKANSKFIGITEAAASIVSPFIPLLGGGDPRVRGLYFPA) (SEQ ID NO:5) for inducing the differentiation of T cells into Th1/Th2 type was analyzed. […] The expression frequency of IFN-γ secreting cells in peripheral blood lymphocytes was measured by the ELI-SPOT method in said supernatant. […] In the group of administration with IFN-α2b, the highest 1250 IFN-γ secreting cells/10^6 PBMC (D) were detected. […]

## IFN-α2b: positive control drug, 15000 U/mouse [reference compound]
  highest expression frequency of IFN-γ secreting cells: 1250 IFN-γ secreting cells/10^6 PBMC
